Yeast mating assay B: variants of the scFv Ab-14

Data: MIT Lincoln Laboratory AlphaSeq set, Li et al. 2023, doi:10.1038/s41467-023-39022-2, as distributed in FLAb.

The target is the same throughout: PDVDLGDISGINAS, from the HR2 region of SARS-CoV-2 spike.

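The parent was found by panning a naive human phage display library on the peptide. These sequences belong to a second round, designed from the earlier measurements on random variants of the parent. Several design methods are mixed in this list. Affinity was read by AlphaSeq, a pooled yeast mating assay with surface-displayed partners. The frequency of each diploid, read from paired DNA barcodes, reflects how well the two displayed proteins bind. The ratio of observed to expected reads was calibrated, replicate by replicate, on BCL2-family standards whose Kd was known from biolayer interferometry. There are six technical replicates.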

Parent: Ab-14, a human scFv built as VH, three GGGGS repeats, VL. Only the CDRs of the light chain vary.
VH: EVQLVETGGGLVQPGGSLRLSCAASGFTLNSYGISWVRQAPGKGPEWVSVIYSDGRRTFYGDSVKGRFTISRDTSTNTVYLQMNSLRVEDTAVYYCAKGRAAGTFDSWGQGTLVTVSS
VL: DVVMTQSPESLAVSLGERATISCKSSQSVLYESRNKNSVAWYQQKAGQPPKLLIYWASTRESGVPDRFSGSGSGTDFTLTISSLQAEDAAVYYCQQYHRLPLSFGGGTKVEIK

Variants are written as CDR1, CDR2 and CDR3 of the light chain (limits as in the source). Parent: KSSQSVLYESRNKNSVA, WASTRES, QQYHRLPLS.
Affinities are written as log10 Kd with Kd in nM; a lower number is a better binder.
Averages over replicates are reported, and they cover detected replicates only.
A pair that was not seen in any replicate is written "nd"; this usually means weak binding, but a binder can also be missed.
In the paper, a design with two or fewer of six values counts as a poor binder.
Nonspecific signal, from three strains lacking the peptide, appeared in 4% of pairings of all light chain designs, centred on 2.64 (5% of these signals below 1.59); values are not corrected for it.
A sequence measured in both rounds can read differently, since the two assays cover different ranges.

CDR-L1	CDR-L2	CDR-L3	mean log10 Kd (nM)	seen in
KCSQSVLYASRNKNSVA	AASTRSS	QQYHRLPLS	0.59	6 of 6
NLSYQQQEPTGMVNSVA	QTSLRAH	QQYAHLPLC	0.63	6 of 6
KLSQSVLYESRNKNSVA	NAETRES	QQYHRLPLS	-0.08	6 of 6
KSSQSWDYESRNFWSVA	GASTRES	QQYHRLPLS	0.71	6 of 6
TISQSFMMENQFKNSVA	QANTRES	QCYDRLPLS	1.21	6 of 6
DVHALMNHSEDLMQNIA	GESCRDA	QQYERLPLS	0.91	6 of 6
TISDLMHSETRNVNNVA	DLVKREK	QQYHRLPLS	-0.42	6 of 6
LMNERMEMGENQQHSIA	NAAHLVH	QDYHRLPLG	3.24	3 of 6
TISTSFLMENQFKNSVA	QASTRES	QCYDRLPLS	1.99	6 of 6
KISQITGHLSMSKNNVA	EMVTREN	QQYDRLPLS	1.94	3 of 6
IVSQLMLWGMHAKNSIA	EAQTRLN	QQYDRLPLI	2.61	2 of 6
KVDQSWDYESRNKNSVA	NASTRER	QQYHRLPLS	-0.28	6 of 6
KLVQSNLYESRNTNSVA	NASQREQ	QQYHRLPLS	1.08	6 of 6
SIYDATRMESRNKNPIA	DVSTRPS	QQYDRLPLS	0.21	6 of 6
KSSQSWLYESRNKNSVA	DASVRES	QQYHRLPLS	-0.23	6 of 6
KFEQLHLYESRNKNSVA	QASTREM	QQYHRLPLS	0.38	6 of 6
HITMGMYVSGRHHSNIA	QAEERAK	QQYDRLPLI	0.83	6 of 6
SVTIYTDENGLKMQSIA	GAGNRML	QQYHRLPLT	0.94	6 of 6
HMSMLTLQGMRMRNSVA	QMTTRVN	QQYDRLPLT	nd	0 of 6
KSSQSYLGEKRNKNSVA	EASTRES	QQYHRLPLS	0.35	6 of 6
KSSQSVLYESRNPNSVA	EASTRES	QHYHRLPLS	0.70	6 of 6
KLSQSVLYESENKNSVA	WASTRIS	QHYHRLPLS	2.05	5 of 6
KLSQSVLYESRNKNSVA	NASTRES	QQYHRLPLF	-0.06	6 of 6
HMRMECSGYQNYGKSIA	HGNMRHN	QQYSRLPFS	1.17	6 of 6
HISQSVEGEESNKNSVA	SASTREQ	QQYHRLPLS	0.68	6 of 6
KSSQSVLYESRGKNSVA	AADTRES	QQYHRLPLS	1.40	6 of 6
KLSQSVLMESRMVNNVA	NASQREE	QQYHRLPLS	0.03	6 of 6
KISMSNTFESRNKNSVA	ENSTRES	QSYHRLPLS	2.61	4 of 6
KLSQSVEYESRNKNSVA	GASTRES	QQYHRLPLS	-0.40	6 of 6
KMSQENPYESRNSNSVA	HASTREM	QQYHRLPLS	-0.10	6 of 6
KLSQSMLYESRNVNSVA	SASTRES	QQYHRLPLM	-0.04	6 of 6
KASDGELYESRDDNSVA	DASKRLS	QQYHRLPLS	-0.20	6 of 6
IAYQSWLYESRNKNSVA	GASTRES	QQYHRLPLI	0.78	6 of 6
KSSQSVLYESRNKNSIA	QASTRES	QQYGRLPLS	0.91	6 of 6
KYYPSYLYESRNKNSVA	QASTRES	QQYHVLPLS	0.90	6 of 6
HMSAVTMMGSRHRNSVA	QMTTREN	QQYDHLPLS	1.08	6 of 6
KLSQNVLFWGHAINSVA	EMETREN	QQYDRLPLS	0.96	6 of 6
KYSQSVLYESRNKNSVA	QATTRES	QQYHRLPLS	0.17	6 of 6
KFQQSYLYESRNKNSVA	NASTRES	QQYHRLPLS	-0.39	6 of 6
IVSQLMLWGLHAKNSIA	EAATRYN	QQYERLPLF	1.28	2 of 6
KFSQSVLYESRNKNSVA	WASTRES	QQYHRLPLS	2.10	4 of 6
KLSQSVLYESRNKNSVA	QASTRES	QQYHRLPLM	0.23	6 of 6
KSGQSVLYESRNKNSVA	GASTRES	QQYHRLPLH	0.60	6 of 6
KVEQGWLDESRNKNSVA	WASTRES	QQYHRLPLS	0.40	6 of 6
KSSQSVCFESRNKNSVA	DASTRES	QQYHRLPLS	0.34	6 of 6
TISQVMNTLTREGNNVA	DLQERES	QQYFRLPLS	1.80	6 of 6
KIQQVMAGFKNEENNIA	SGAVRLW	QQYLRLPFI	1.13	6 of 6
NISESMYFQSRMKNNIA	EMSTREK	QHYHRLPLS	0.64	3 of 6
KSSWSYLYESMNKNSVA	NGSTRES	QQYHRLPLS	1.39	4 of 6
HVELGVGGVQKYGDSVA	HASQRQS	QQYYQLPLT	0.53	6 of 6
KSSQSFLYESRNKNSVV	GASTREE	QQYHRLTLS	nd	0 of 6
KQSQSVDYEWRNKNSVA	DASTRES	QQYHRLPLS	-0.04	6 of 6
TISQVMNTLTRHGNNVA	DLTEREM	QQYFRLPLS	0.33	6 of 6
KSSQSQLYESRNKNSVA	WASTRES	QQYHRLPLS	2.63	5 of 6
KISQMFNVGTKNTNSLA	EMNTRGF	QDYHRLPLS	0.62	6 of 6
KLSQSVEGEEWNKNSVA	NASVREV	QQYHRLPLS	0.83	6 of 6
QVAAIHEHSSDLNKAMA	EASTRDA	QQYERLPLS	0.41	6 of 6
VLAMESYQKYRHENNIA	EANMRAQ	QQYNRLPFQ	-0.03	6 of 6
QSSQSVLYESRNKNSIA	NASTRES	QQYHRLPLS	0.76	6 of 6
KLPQSMLYESRNKNSVA	DASQRES	QQYHRLPLS	-0.22	6 of 6
MMSSLMGYESRHINNVA	QTTTREQ	QQYDRLPLI	-0.38	6 of 6
VYNLPFEGYQPKKYSIA	NAEIREY	QQYFRLPIL	1.05	6 of 6
KLDLSMSYSHEGRRAIA	NADAHVI	QQYHRLPLI	0.64	6 of 6
KSSQSWLYESRNKNSVA	HASTRED	QQYHRLELS	nd	0 of 6
KIQDNLGTLMQQINSVA	SSEEKSD	QSYFRLPLI	1.12	6 of 6
QLAVDRLQEYKMGAAIA	GKTTRED	QQYARLPLS	0.49	6 of 6
IVSQLMLWGMHNKNSIA	EAQTRTN	QQYDRLPLF	1.91	2 of 6
KLSQSVRMESFQKNSVA	ENSTREA	QDYHRLPLS	2.56	2 of 6
TISSVMNHMTRIENNVA	NQDMREE	QQYDRLPLS	1.14	6 of 6
KSSMSYLYESRNKNSVA	EASTREQ	QQYHRLPLS	-0.26	6 of 6
KLQNSYEYESRMKNSVA	NASTRLE	QQYHRLPLS	-0.04	6 of 6
KLSQSELYEDRNKNSVA	NASQRES	QQYHRLPLS	0.11	6 of 6
HLGLVTMLEEAVRNSVA	NNSTRED	QQYDRLPLS	1.82	6 of 6
RLTEHQYMRADANHAVA	DASTRND	QQYHRLPLE	-0.12	6 of 6

The first 11 entries again:

CDR-L1	CDR-L2	CDR-L3	mean log10 Kd (nM)	seen in
KCSQSVLYASRNKNSVA	AASTRSS	QQYHRLPLS	0.59	6 of 6
NLSYQQQEPTGMVNSVA	QTSLRAH	QQYAHLPLC	0.63	6 of 6
KLSQSVLYESRNKNSVA	NAETRES	QQYHRLPLS	-0.08	6 of 6
KSSQSWDYESRNFWSVA	GASTRES	QQYHRLPLS	0.71	6 of 6
TISQSFMMENQFKNSVA	QANTRES	QCYDRLPLS	1.21	6 of 6
DVHALMNHSEDLMQNIA	GESCRDA	QQYERLPLS	0.91	6 of 6
TISDLMHSETRNVNNVA	DLVKREK	QQYHRLPLS	-0.42	6 of 6
LMNERMEMGENQQHSIA	NAAHLVH	QDYHRLPLG	3.24	3 of 6
TISTSFLMENQFKNSVA	QASTRES	QCYDRLPLS	1.99	6 of 6
KISQITGHLSMSKNNVA	EMVTREN	QQYDRLPLS	1.94	3 of 6
IVSQLMLWGMHAKNSIA	EAQTRLN	QQYDRLPLI	2.61	2 of 6